Ki data for one compound are collected here from BindingDB's records for PubMed 1464308 (Cnrs, 1992).

Chains of the proteins cited; added tags and fusions are not shown.
UniProt P30966, whole entry: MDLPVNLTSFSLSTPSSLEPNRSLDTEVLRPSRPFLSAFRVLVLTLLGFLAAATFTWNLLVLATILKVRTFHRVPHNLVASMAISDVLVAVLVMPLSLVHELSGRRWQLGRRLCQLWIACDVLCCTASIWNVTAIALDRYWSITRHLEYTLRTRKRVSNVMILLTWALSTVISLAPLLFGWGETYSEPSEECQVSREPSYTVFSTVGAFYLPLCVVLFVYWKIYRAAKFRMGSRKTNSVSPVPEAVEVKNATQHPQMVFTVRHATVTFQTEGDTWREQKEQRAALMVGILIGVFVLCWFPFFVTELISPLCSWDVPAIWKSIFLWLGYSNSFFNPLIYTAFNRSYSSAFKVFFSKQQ

The structures appear in SMILES notation.

The experiment concerns the target 5-hydroxytryptamine receptor 5A (Mus musculus, UniProt P30966).

Regarding `NCCc1c[nH]c2ccc(O)cc12` [[3H]-5-HT], the Ki was 251 nM. That is a sub-micromolar value.
